Test results: EP0672658B1, “Antithrombotic agents” (priority 1994, dated 1995)
Where a name gives a salt, the structure may show the parent alone. Read-outs that look alike come from different tables or passages of the source.

Assay: in vivo
Design: species or system rats
Details: plasma, rat
[1] = po, read-out: % oral/i.v. activity (Rat)
Further: key: NC^1 indicates screening not completed; low or very low activity obsrved at 20 mg/kg p.o; NC^2 indicates screening not completed; low or very low activity observed at 60 mg/kg p.o; NC^3 indicates screening not completed; low or very low activity observed at 50 mg/kg p.o.

SMILES	bioavailability (oral vs i.v.)	bioavailability [1]
N=C(N)c1ccc(CNC(=O)[C@@H]2CCCN2C(=O)[C@H]2CCCCN2)cc1 [Example 17, D-hPro-Pro-p-NHCH2C6H4C(NH)NH2·HCl]	15%	
N=C(N)c1ccc(CNC(=O)[C@@H]2CCCN2C(=O)[C@@H]2NCC[C@@H]3CCCC[C@@H]32)cc1 [Example 18, 1-Piq-Pro-p-NHCH2C6H4C(NH)NH2·2HCl]		12%
CCS(=O)(=O)N[C@H](Cc1ccccc1)C(=O)N1CCC[C@H]1C(=O)NCc1ccc(C(=N)N)cc1 [Example 23, EtSO2-D-Phe-Pro-p-NHCH2-C6H4C(=NH)NH2·HCl]		12%
